Results taken from PMC11472320, “Computationally Driven Discovery of a BCR-ABL1 Kinase Inhibitor with Activity in Multidrug-Resistant Chronic Myeloid Leukemia” (Journal of Medicinal Chemistry, 2024).

By UniProt entry, the sequences of proteins in these tests, tags left out. Where a name states a change or a piece, a line headed by the entry shows the natural chain unless it says otherwise. Residues count along the entry.
UniProt Q8TF76: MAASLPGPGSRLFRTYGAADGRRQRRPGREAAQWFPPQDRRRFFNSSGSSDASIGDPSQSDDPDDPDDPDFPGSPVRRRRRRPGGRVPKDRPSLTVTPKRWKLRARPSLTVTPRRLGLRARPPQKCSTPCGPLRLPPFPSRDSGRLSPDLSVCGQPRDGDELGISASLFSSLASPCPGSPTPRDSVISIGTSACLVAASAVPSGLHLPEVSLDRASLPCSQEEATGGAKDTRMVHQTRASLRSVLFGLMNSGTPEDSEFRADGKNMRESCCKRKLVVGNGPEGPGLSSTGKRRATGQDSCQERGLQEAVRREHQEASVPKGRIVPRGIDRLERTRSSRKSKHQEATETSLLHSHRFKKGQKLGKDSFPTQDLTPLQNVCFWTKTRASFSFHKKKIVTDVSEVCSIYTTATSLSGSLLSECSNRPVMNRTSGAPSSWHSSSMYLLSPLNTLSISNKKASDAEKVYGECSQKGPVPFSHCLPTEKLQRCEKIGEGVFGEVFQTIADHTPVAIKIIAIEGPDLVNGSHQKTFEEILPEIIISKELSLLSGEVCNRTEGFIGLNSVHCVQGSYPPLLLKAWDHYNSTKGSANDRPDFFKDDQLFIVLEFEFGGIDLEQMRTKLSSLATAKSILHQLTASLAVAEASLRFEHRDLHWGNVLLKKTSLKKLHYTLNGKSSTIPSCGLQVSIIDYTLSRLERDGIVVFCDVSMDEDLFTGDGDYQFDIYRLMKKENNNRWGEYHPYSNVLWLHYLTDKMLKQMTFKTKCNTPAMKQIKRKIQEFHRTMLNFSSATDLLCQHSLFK
UniProt P42336, whole entry E545A: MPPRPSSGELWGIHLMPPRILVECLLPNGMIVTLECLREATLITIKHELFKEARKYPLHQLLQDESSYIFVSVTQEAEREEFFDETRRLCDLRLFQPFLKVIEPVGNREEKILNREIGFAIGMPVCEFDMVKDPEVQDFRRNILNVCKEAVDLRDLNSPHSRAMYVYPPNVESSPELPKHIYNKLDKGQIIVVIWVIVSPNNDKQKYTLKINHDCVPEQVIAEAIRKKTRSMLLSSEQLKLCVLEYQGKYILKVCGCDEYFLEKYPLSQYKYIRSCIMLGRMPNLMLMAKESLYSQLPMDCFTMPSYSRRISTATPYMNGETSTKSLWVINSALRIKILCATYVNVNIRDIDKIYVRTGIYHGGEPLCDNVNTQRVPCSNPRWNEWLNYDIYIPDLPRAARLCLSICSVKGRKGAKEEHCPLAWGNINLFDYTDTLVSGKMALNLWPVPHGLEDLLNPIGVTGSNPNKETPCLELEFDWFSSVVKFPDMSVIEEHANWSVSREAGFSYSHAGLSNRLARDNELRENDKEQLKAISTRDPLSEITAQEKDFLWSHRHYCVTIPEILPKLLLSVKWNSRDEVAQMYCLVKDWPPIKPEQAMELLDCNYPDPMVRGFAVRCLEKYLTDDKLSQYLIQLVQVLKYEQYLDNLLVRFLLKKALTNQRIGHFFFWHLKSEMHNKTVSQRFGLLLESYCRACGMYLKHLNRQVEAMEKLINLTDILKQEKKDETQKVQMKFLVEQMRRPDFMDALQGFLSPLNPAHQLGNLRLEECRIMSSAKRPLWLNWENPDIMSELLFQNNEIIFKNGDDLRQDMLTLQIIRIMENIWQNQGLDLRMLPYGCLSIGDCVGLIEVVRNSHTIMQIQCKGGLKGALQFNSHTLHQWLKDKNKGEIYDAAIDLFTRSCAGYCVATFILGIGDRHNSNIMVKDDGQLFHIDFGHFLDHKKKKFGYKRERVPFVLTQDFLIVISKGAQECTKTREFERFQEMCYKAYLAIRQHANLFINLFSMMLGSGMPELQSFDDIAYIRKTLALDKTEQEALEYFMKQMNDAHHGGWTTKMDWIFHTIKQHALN
UniProt P42336, whole entry E545K: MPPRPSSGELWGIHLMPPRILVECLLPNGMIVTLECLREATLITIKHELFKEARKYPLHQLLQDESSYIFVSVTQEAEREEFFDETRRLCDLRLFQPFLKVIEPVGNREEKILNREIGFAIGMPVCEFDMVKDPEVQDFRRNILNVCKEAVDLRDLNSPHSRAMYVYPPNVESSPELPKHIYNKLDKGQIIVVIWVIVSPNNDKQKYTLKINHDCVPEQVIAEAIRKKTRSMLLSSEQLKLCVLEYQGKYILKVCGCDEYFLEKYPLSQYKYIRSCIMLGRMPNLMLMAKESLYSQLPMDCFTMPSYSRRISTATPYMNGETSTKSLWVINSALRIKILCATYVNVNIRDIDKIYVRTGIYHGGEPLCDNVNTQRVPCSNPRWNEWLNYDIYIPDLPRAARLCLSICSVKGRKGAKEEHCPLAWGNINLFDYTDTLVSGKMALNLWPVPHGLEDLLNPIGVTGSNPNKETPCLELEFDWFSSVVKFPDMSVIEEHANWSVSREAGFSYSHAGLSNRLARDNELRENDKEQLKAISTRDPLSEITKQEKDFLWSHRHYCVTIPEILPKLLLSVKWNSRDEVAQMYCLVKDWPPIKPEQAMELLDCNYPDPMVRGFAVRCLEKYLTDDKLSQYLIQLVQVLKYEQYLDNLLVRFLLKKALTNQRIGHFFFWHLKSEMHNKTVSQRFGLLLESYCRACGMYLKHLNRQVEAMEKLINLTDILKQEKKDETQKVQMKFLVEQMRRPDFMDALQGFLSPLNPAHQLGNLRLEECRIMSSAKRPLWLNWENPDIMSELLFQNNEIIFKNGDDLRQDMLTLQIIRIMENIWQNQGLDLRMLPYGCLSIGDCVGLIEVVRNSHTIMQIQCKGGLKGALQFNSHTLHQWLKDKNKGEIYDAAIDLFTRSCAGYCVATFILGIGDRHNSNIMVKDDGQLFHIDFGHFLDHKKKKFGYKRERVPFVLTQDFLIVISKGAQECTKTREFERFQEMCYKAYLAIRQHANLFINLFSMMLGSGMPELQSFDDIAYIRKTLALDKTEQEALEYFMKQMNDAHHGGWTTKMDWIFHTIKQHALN
UniProt P42336, whole entry H1047Y: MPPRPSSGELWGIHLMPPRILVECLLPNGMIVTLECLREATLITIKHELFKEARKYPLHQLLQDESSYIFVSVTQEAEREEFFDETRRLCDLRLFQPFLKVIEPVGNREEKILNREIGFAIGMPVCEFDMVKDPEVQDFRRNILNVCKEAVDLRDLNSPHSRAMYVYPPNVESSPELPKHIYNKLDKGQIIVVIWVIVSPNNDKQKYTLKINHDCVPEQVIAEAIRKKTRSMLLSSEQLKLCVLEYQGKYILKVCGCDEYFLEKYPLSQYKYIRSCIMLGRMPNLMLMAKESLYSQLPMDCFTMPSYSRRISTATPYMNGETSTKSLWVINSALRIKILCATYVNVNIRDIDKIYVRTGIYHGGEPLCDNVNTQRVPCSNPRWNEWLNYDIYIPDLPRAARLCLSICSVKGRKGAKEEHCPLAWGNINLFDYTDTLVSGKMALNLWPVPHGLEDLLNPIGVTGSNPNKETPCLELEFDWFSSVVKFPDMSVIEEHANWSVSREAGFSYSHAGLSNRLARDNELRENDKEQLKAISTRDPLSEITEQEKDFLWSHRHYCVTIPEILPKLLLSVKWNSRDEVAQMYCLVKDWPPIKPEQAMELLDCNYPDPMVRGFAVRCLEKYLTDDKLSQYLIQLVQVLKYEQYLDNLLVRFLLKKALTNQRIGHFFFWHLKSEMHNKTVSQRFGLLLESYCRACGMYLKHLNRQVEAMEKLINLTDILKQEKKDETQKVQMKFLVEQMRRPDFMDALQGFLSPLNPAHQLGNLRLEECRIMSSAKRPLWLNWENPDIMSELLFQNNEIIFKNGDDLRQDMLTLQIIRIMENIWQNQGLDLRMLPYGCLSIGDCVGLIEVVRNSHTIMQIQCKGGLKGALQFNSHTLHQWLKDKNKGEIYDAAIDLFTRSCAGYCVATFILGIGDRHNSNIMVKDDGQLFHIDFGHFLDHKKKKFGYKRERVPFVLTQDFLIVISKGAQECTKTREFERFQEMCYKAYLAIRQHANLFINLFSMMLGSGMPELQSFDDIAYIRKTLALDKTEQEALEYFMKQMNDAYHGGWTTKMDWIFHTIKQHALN
UniProt Q99755: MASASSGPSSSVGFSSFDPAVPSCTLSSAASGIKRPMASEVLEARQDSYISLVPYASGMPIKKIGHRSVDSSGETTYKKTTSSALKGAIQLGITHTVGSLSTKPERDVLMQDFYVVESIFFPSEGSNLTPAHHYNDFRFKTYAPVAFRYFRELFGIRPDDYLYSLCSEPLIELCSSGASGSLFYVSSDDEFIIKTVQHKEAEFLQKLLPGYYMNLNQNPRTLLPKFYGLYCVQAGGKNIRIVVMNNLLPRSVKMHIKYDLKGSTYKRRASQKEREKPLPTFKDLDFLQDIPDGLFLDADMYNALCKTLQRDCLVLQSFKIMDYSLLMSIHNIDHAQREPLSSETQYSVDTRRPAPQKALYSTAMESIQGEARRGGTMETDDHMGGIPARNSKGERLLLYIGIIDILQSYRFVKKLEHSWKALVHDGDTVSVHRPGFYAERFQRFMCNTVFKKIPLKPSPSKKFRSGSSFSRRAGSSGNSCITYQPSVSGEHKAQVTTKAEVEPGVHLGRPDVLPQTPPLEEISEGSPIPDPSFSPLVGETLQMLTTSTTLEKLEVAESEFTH
UniProt P07949, 29-1114: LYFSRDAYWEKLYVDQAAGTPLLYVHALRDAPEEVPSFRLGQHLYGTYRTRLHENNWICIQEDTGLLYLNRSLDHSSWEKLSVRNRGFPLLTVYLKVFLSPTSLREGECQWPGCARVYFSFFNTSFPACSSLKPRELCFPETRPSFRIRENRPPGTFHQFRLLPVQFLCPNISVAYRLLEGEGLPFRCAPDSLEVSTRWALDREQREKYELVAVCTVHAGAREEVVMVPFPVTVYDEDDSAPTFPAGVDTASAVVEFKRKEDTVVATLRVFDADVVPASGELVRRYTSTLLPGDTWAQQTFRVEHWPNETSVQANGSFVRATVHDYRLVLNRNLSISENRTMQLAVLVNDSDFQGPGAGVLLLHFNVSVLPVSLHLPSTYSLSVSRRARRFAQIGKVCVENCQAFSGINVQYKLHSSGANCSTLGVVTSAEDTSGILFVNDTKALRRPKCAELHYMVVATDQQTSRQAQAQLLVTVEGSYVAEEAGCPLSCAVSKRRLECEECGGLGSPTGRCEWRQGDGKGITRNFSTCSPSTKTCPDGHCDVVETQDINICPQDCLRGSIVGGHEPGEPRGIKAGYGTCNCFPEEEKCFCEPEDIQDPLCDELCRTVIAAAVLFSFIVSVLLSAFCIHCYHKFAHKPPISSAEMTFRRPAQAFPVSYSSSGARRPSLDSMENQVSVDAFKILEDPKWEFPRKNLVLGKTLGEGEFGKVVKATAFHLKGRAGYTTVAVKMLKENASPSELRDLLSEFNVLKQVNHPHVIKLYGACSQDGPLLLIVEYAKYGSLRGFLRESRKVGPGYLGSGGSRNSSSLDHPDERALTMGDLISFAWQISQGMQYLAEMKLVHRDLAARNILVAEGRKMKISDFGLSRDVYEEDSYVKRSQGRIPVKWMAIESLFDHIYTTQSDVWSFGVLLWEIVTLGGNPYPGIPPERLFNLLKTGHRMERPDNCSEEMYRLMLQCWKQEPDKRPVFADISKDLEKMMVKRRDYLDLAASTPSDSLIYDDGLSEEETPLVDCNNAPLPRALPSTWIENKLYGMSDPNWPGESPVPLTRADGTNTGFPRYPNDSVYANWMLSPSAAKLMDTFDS
UniProt Q13546: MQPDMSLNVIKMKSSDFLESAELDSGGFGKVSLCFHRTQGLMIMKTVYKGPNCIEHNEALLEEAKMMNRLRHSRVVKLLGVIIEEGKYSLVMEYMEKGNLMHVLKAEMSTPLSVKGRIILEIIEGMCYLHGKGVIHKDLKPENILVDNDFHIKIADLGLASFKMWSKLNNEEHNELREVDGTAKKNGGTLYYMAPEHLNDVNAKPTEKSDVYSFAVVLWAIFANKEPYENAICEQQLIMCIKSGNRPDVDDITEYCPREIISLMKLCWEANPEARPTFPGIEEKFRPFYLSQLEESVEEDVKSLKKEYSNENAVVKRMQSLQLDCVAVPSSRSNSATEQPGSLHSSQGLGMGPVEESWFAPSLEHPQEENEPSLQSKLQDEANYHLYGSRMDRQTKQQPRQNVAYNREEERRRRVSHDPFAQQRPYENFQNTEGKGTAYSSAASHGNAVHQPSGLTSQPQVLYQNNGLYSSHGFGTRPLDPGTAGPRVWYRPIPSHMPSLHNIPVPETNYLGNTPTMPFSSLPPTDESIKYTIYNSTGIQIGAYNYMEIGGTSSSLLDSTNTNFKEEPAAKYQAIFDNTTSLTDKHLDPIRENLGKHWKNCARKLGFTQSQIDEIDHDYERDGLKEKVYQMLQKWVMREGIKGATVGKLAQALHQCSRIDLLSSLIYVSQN

Columns and labels:
Assay in all cases: biochemical
Details in all cases: read-out: Percent Control
[1] = molecular target: ACVR1 (Homo sapiens, UniProt Q04771)
[2] = molecular target: ANKK1 (Homo sapiens, UniProt Q8NFD2)
[3] = molecular target: BMPR2 (Homo sapiens, UniProt Q13873)
[4] = molecular target: CAMK1 (Homo sapiens, UniProt Q14012)
[5] = molecular target: CAMK2A (Homo sapiens, UniProt Q9UQM7)
[6] = molecular target: CAMK4 (Homo sapiens, UniProt Q16566)
[7] = molecular target: CDK4-cyclinD3 (Homo sapiens, UniProt P11802)
[8] = molecular target: CDK8 (Homo sapiens, UniProt P49336)
[9] = molecular target: CDKL2 (Homo sapiens, UniProt Q92772)
[10] = molecular target: CSF1R-autoinhibited (Homo sapiens, UniProt P07333)
[11] = molecular target: CSNK2A2 (Homo sapiens, UniProt P19784)
[12] = molecular target: DAPK2 (Homo sapiens, UniProt Q9UIK4)
[13] = molecular target: DDR1 (Homo sapiens, UniProt Q08345)
[14] = molecular target: EGFR(T790M) (Homo sapiens, UniProt P00533, T790M)
[15] = molecular target: EPHA5 (Homo sapiens, UniProt P54756)
[16] = molecular target: FGFR4 (Homo sapiens, UniProt P22455)
[17] = molecular target: FRK (Homo sapiens, UniProt P42685)
[18] = molecular target: HASPIN (Homo sapiens, UniProt Q8TF76)
[19] = molecular target: HCK (Homo sapiens, UniProt P08631)
[20] = molecular target: MAP4K2 (Homo sapiens, UniProt Q12851)
[21] = molecular target: MARK1 (Homo sapiens, UniProt Q9P0L2)
[22] = molecular target: MARK2 (Homo sapiens, UniProt Q7KZI7)
[23] = molecular target: MAST1 (Homo sapiens, UniProt Q9Y2H9)
[24] = molecular target: MET(M1250T) (Homo sapiens, UniProt P08581, M1250T)
[25] = molecular target: MUSK (Homo sapiens, UniProt O15146)
[26] = molecular target: MYLK2 (Homo sapiens, UniProt Q9H1R3)
[27] = molecular target: PAK7 (Homo sapiens, UniProt Q9P286)
[28] = molecular target: PIK3CA(E545A) (Homo sapiens, UniProt P42336, E545A)
[29] = molecular target: PIK3CA(E545K) (Homo sapiens, UniProt P42336, E545K)
[30] = molecular target: PIK3CA(H1047Y) (Homo sapiens, UniProt P42336, H1047Y)
[31] = molecular target: PIM1 (Homo sapiens, UniProt P11309)
[32] = molecular target: PIP5K1A (Homo sapiens, UniProt Q99755)
[33] = molecular target: PLK3 (Homo sapiens, UniProt Q9H4B4)
[34] = molecular target: PRKG2 (Homo sapiens, UniProt Q13237)
[35] = molecular target: RET (Homo sapiens, UniProt P07949)
[36] = molecular target: RIOK2 (Homo sapiens, UniProt Q9BVS4)
[37] = molecular target: RIPK1 (Homo sapiens, UniProt Q13546)
[38] = molecular target: TAOK1 (Homo sapiens, UniProt Q7L7X3)
[39] = molecular target: TBK1 (Homo sapiens, UniProt Q9UHD2)
[40] = molecular target: TNK1 (Homo sapiens, UniProt Q13470)
[41] = molecular target: TRPM6 (Homo sapiens, UniProt Q9BX84)
[42] = molecular target: WNK4 (Homo sapiens, UniProt Q96J92)
[43] = molecular target: ZAK (Homo sapiens, UniProt Q9NYL2)

Compound: COc1cc2c(Nc3ccc(Cl)c(OC)n3)c(C#N)cnc2cc1OCCON1CCN(C)CC1 [16a, 4-((5-Chloro-6-methoxypyridin-2-yl)amino)-6-methoxy-7-(2-((4-methylpiperazin-1-yl)oxy)ethoxy)quinoline-3-carbonitrile]
- remaining activity at 1 µM [1]: 100%
- remaining activity at 1 µM [2]: 97%
- remaining activity at 1 µM [3]: 29%
- remaining activity at 1 µM [4]: 65%
- remaining activity at 1 µM [5]: 44%
- remaining activity at 1 µM [6]: 100%
- remaining activity at 1 µM [7]: 99%
- remaining activity at 1 µM [8]: 91%
- remaining activity at 1 µM [9]: 39%
- remaining activity at 1 µM [10]: 65%
- remaining activity at 1 µM [11]: 76%
- remaining activity at 1 µM [12]: 74%
- remaining activity at 1 µM [13]: 25%
- remaining activity at 1 µM [14]: 21%
- remaining activity at 1 µM [15]: 12%
- remaining activity at 1 µM [16]: 100%
- remaining activity at 1 µM [17]: 6.1%
- remaining activity at 1 µM [18]: 89%
- remaining activity at 1 µM [19]: 0.6%
- remaining activity at 1 µM [20]: 0%
- remaining activity at 1 µM [21]: 43%
- remaining activity at 1 µM [22]: 32%
- remaining activity at 1 µM [23]: 96%
- remaining activity at 1 µM [24]: 68%
- remaining activity at 1 µM [25]: 22%
- remaining activity at 1 µM [26]: 16%
- remaining activity at 1 µM [27]: 39%
- remaining activity at 1 µM [28]: 79%
- remaining activity at 1 µM [29]: 89%
- remaining activity at 1 µM [30]: 73%
- remaining activity at 1 µM [31]: 91%
- remaining activity at 1 µM [32]: 15%
- remaining activity at 1 µM [33]: 90%
- remaining activity at 1 µM [34]: 100%
- remaining activity at 1 µM [35]: 48%
- remaining activity at 1 µM [36]: 100%
- remaining activity at 1 µM [37]: 100%
- remaining activity at 1 µM [38]: 73%
- remaining activity at 1 µM [39]: 30%
- remaining activity at 1 µM [40]: 74%
- remaining activity at 1 µM [41]: 100%
- remaining activity at 1 µM [42]: 100%
- remaining activity at 1 µM [43]: 1.6%
